Source: publication PMC3806486

Target: MYC-tagged p67^phox R38Q (human) (UniProt P19878)
Assay: co-IP

“GFP-tagged RAC2 (from UniProt P15153 1-192) (natural protein)” gave a reduction of binding in comparison with wild-type p67^phox of 51%.
